Values of other authors as cited in patent publication US20240016441A1, “SODIUM L-LACTATE INFUSION FOR EARLY DIAGNOSIS OF PARKINSON'S DISEASE” (priority 2023, published 2024).
Like-named read-outs stand apart in the source and are kept apart here.

Columns and labels:
[1] = 350 mmol/L; priming 150 or 300 μmol/kg over 5 min, then 10 or 20 μmol*kg^-1*min^-1 for ~120 min
[2] = 84 mEq/L at 5 ml*kg^-1*h^-1 for 3.5 hours, single anesthetized patient
[3] = baseline 8.1 mg/dL

Row | maximum L-lactate plasma concentration [1] [mg/dL] | Compound | maximum L-lactate whole-blood concentration [2] [mg/dL] | L-lactate level at which safety has been demonstrated ([3]; anesthetized patients) [mg/dL] | L-lactate level at which safety has been demonstrated ([3]; non-anesthetized patients) [mg/dL]
1 | 24.9 | [13CH3]C(O)C(=O)[O-].[Na+] [sodium [3-^13C] L-lactate] | – | – | –
2 | – | C[C@H](O)C(=O)[O-].[Na+] [sodium L-lactate] | 41.3 | 41.3 | 24.9
